What was measured:
[1] = test system: PA1 human ovarian tumor cells; test: Tumor cell growth inhibition, PA1 cells (cell counting); format: cell-based; conditions: read-out: IC50 (concentration required to inhibit cell number by 50%), 5-100 μM, 3 d (72 h) exposure, electronic cell counting, mean ± SE
[2] = test system: Escherichia coli bacterial cells; test: Bacterial cell growth inhibition (optical density at 600 nm); conditions: E. coli in LB, concentrations ≦1000 μM, OD hourly up to 6 hour
[3] = test system: DU-145 human prostate tumor cells; test: Flow cytometry (propidium iodide) apoptosis, sub-G0/G1 peak; format: cell-based; conditions: DU-145 cells, 50 μM, 24 h
[4] = test system: DU-145 human prostate tumor cells; test: Western blot of PARP cleavage and procaspase 8a/b; conditions: DU-145 cells, 50 μM

[N-]=[N+]=NCCS(=O)(=O)N=[N+]=[N-]
IC50 [1]: 4.9 µM | bacterial cell growth inhibitory activity [2]: potent bacterial cell growth inhibitory activity | % apoptosis (sub-G0/G1 peak area) [3]: 38% | level of apoptosis greater than that in taurolidine-treated cells [3]: at least 10% | level of apoptosis relative to taurolidine-treated cells [3]: greater than 2 fold | cytotoxic potency and speed compared to taurolidine [4]: more potent cytotoxic agents and exert cytotoxity more rapidly compared to taurolidine | induction of apoptotic death (flow cytometry and Western blot: PARP 85 kD fragment, reduced procaspase 8a/b) ([4]; 12 h): induce apoptotic death of tumor cells
